Measurements taken from patent publication US20130345205A1, “SUBSTITUTED BICYCLIC ARALKYL PYRAZOLE LACTAM ANALOGS AS ALLOSTERIC MODULATORS OF MGLUR5 RECEPTORS” (Vanderbilt University, priority 2012, published 2013).

Sequences of proteins named here, by UniProt entry; tags and fusion partners are left off. Residues count along the entry.
UniProt P41594, 21-1180 isoform 2 limits assumed: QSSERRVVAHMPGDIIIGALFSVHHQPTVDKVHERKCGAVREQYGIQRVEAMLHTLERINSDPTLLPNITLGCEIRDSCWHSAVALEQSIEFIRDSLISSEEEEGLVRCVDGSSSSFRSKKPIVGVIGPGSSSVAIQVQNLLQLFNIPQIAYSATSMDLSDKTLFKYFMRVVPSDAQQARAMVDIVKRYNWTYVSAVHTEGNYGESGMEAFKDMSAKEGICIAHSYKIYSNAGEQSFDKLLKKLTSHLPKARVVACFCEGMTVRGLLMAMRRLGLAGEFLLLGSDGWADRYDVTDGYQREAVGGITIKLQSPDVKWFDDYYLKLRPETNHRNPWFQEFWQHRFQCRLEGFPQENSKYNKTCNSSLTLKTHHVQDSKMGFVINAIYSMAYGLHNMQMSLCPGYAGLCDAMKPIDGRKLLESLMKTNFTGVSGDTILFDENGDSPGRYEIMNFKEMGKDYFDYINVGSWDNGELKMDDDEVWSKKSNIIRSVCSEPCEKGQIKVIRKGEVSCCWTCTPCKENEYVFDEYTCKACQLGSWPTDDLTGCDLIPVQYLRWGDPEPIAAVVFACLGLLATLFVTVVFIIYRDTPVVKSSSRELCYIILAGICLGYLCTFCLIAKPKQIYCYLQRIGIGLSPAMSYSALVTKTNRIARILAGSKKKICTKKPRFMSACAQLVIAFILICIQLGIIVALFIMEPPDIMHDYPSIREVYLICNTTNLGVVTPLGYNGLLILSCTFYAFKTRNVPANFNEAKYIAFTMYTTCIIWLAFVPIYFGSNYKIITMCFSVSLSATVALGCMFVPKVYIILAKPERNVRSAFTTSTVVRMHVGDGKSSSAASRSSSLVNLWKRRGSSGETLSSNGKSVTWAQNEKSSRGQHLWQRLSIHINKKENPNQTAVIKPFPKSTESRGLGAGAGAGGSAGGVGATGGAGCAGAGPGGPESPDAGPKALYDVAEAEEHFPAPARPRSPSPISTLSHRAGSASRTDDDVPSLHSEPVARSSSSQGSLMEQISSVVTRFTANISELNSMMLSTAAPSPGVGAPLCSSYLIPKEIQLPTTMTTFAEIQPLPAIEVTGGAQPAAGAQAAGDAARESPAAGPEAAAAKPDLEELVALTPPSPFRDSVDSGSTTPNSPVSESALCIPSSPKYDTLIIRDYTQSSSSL

Biological target: human mGluR5 (Homo sapiens, UniProt P41594)
Experiment: Cell-based functional Ca2+ mobilization assay (FDSS), potentiation of glutamate EC20 response
Conditions: H10H cell-line (HEK, recombinant human mGluR5); for Emax (%): glutamate EC20, maximum average response at a single concentration, percent of maximal glutamate response; for pEC50: positive allosteric modulation in presence of glutamate EC20, concentration in mol/L
Excerpt: Human mGluR5a cDNA in pCMV6-XL6 mammalian expression plasmid was purchased from OriGene Technologies, Inc. (catalogue number SC326357) and subcloned into pcDNA3.1(−). Human embryonic kidney (HEK) 293A cells were then transfected with human mGluR5a pcDNA3.1(−) using LipofectAmine2000 (Invitrogen) and monoclones were selected and tested for functional response using a Ca^2+ mobilization assay. Monoclones were named for the species (“H” for human) plus the location on the plate (e.g. “10H”).
HEK cells transfected with the human mGluR5a receptor (H10H or H12H cell line) were plated at 15,000 cells/well in clear-bottomed poly-D-lysine-coated assay plates (BD Falcon) in glutamate-glutamine-free growth medium and incubated overnight at 37° C. and 5% CO2. Cell-lines used were either the H10H or H12H cell-lines expressing the human mGluR5 receptor. The following day, the growth medium was removed and the cells were washed with assay buffer containing 1× Hank's balanced salt solution (Invitrogen, Carlsbad, Calif.), 20 mM HEPES, 2.5 mM probenecid, pH 7.4 and left with 20 μL of this reagent. Following this step, the cells were loaded with calcium indicator dye, fluo-4 AM, to a final concentration of 2 μM and incubated for 40-45 min at 37° C. The dye solution was removed and replaced with assay buffer. Cell plates were held for 10-15 min at room temperature and were then loaded into the Functional Drug Screening System 6000 (FDSS 6000, Hamamatsu, Japan).
After establishment of a fluorescence baseline for about 3 seconds, the compounds of the present invention were added to the cells, and the response in cells was measured. 2.3 minutes later an EC20 concentration of the mGluR5 receptor agonist glutamate was added to the cells, and the response of the cells was measured for about 1.7 minutes. All test compounds were dissolved and diluted to a concentration of 10 mM in 100% DMSO and then serially diluted into assay buffer for a 2× stock solution in 0.6% DMSO; stock compounds were then added to the assay for a final DMSO concentration of 0.3% after the first addition to the assay well. Calcium fluorescence measures were recorded as fold over basal fluorescence; raw data was then normalized to the maximal response to glutamate. Potentiation of the agonist response of the mGluR5 receptor in the present invention was observed as an increase in response to submaximal concentrations of glutamate in the presence of compound compared to the response to glutamate in the absence of compound.
The concentration-response curves of compounds of the present invention, obtained in the presence of EC20 of mGluR5 receptor agonist glutamate to determine positive allosteric modulation, were generated using Microsoft Excel with IDBS XLFit add-ins. The raw data file containing all time points was used as the data source in the analysis template. This was saved by the FDSS as a tab-delimited text file. Data were normalized using a static ratio function (F/F0) for each measurement of the total 350 values per well divided by each well's initial value. Data was then reduced as to peak amplitudes (Max-Initial Min) using a time range that starts approximately 1 second after the glutamate EC20 addition and continues for approximately 40 seconds. This is sufficient time to capture the peak amplitude of the cellular Calcium response. Individual amplitudes were expressed as % EMax by multiplying each amplitude by 100 and then dividing the product by the mean of the amplitudes derived from the glutamate ECMax-treated wells. pEC50 values for test compounds were generated by fitting the normalized values versus the log of the test compound concentration (in mol/L) using a 4 parameter logistic equation where none of the parameters were fixed. Each of the three values collected at each concentration of test compound were weighted evenly. Individual values falling outside the 95% prediction limits of the curve fit were automatically excluded from the fit. […]

Compound	Emax (%)	pEC50
Cc1noc(C)c1CN1CCn2nc(COc3ccccc3)cc2C1=O	55	5.68
Cc1ccnc(CN2CCn3nc(COc4ccccc4)cc3C2=O)c1	69	6.00
CC1CN(Cc2ccccc2)C(=O)c2cc(COc3ccc(F)cc3)nn21 (single isomer, unassigned) [Example B54]	66.5	
O=C1c2cc(COc3ccccc3)nn2CCN1Cc1cc(F)cc(F)c1	68	6.99
CC(c1ccncc1)N1CCn2nc(COc3ccccc3)cc2C1=O (stereo not shown)	59	5.74
O=C1c2cc(COc3ccccc3)nn2CCN1Cc1ccc(F)cc1	73	7.03
Cc1cccc(OCc2cc3n(n2)CCN(Cc2ccccc2)C3=O)c1	42	
C[C@@H](c1ccccc1)N1CCn2nc(COc3ccccc3)cc2C1=O	53	6.65
COc1nccc(CN2CCn3nc(COc4ccccc4)cc3C2=O)n1	65.5	6.01
Cc1cccnc1CN1CCn2nc(COc3ccccc3)cc2C1=O	73.5	6.27
C[C@@H]1Cn2nc(COc3ccccc3)cc2C(=O)N1Cc1ccccc1	75.5	7.07
CC1CN(Cc2ccccc2)C(=O)c2cc(COc3ccccc3)nn21 (single isomer, unassigned) [Example B14]	57	6.94
COc1ccnc(CN2CCn3nc(COc4ccccc4)cc3C2=O)n1	64.5	
CC(c1ccccn1)N1CCn2nc(COc3ccccc3)cc2C1=O (stereo not shown)	58	5.79
O=C1c2cc(COc3ccccc3)nn2CCN1Cc1c(F)cccc1F	64	6.89
C[C@@H]1Cn2nc(COc3ccc(F)cc3)cc2C(=O)N1Cc1ccccc1	73	6.89
O=C1c2cc(COc3ccc(F)cc3)nn2CCN1Cc1ccccc1	64	6.96
COc1ccc(CN2CCn3nc(COc4ccccc4)cc3C2=O)cc1F	68.5	
COc1cc(F)cc(CN2CCn3nc(COc4ccccc4)cc3C2=O)c1	71.5	6.76
COc1nccnc1CN1CCn2nc(COc3ccccc3)cc2C1=O	75.5	6.56
C[C@@H](c1ccc(F)cc1)N1CCn2nc(COc3ccccc3)cc2C1=O	41	6.45
CC1CN(Cc2ccccc2)C(=O)c2cc(COc3ccccn3)nn21 (single isomer, unassigned)	59	6.51
